## Measured affinities in a library of Ab-14 light chain variants

The target is the same throughout: PDVDLGDISGINAS, from the HR2 region of SARS-CoV-2 spike.

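The parent was found by panning a naive human phage display library on the peptide. This is the validation round: designs drawn from the data on random variants, tested in the same kind of assay. Group labels follow the data file (Ctrl: baseline library sampled from a position-specific scoring matrix, with some repeated check sequences; GP: Gaussian process model; Gen: genetic algorithm; a sequence that several methods proposed may carry one label only). The scFvs were displayed on barcoded MATa yeast, the peptide on MATalpha yeast. Mating (16 h, 30 °C) was followed by selection of diploids and sequencing of their barcodes. The ratio of observed to expected reads was calibrated, replicate by replicate, on BCL2-family standards whose Kd was known from biolayer interferometry. Mating was done six times.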

Each scFv is VH, a 15-residue (Gly4Ser)3 linker, VL, as in the parent Ab-14, and differs from it in the CDRs of the light chain only.
VH: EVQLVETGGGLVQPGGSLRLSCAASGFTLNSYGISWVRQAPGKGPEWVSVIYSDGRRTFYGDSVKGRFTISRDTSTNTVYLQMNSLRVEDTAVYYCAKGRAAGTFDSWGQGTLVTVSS
VL: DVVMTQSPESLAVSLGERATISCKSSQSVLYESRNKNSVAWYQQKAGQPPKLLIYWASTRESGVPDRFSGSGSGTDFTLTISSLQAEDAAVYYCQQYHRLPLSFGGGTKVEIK

The parent's light chain CDRs are KSSQSVLYESRNKNSVA, WASTRES, QQYHRLPLS; each variant's own CDRs replace them letter for letter.
Scale: log10 of Kd in nM, estimated from mating counts; low values are strong binders.
Averages over replicates are reported, and they cover detected replicates only.
"n.d." marks a missing value. The strain was present, yet no cells mated with the target were sequenced in that replicate, which points to weak or no binding.

CDR-L1 | CDR-L2 | CDR-L3 | group | replicates, log10 nM | mean, log10 nM | empty controls
KSSQSVLYESRNFNSVA | KASTRES | QQYHRLPLS | Ctrl | n.d. 1.19 2.13 1.35 n.d. n.d. | 1.56 | 0/18
KSSQSVLYEVRNHNSVA | WASTRES | QQYHRLPLS | Ctrl | n.d. n.d. n.d. n.d. n.d. n.d. | n.d. | 0/18
KSRQSVLYESRNKNSVA | WASTRES | QQYHRVPLS | Ctrl | n.d. n.d. n.d. n.d. n.d. n.d. | n.d. | 0/18
KSSESVLREDRNKNSVA | WASTRES | PQYHRLPLS | Ctrl | n.d. n.d. n.d. 2.67 0.93 n.d. | 1.80 | 1/18 (1.86)
KISQSMLYESRNHNSVA | WASTRES | QQYHGLPLS | Ctrl | 1.21 1.05 2.04 2.21 1.70 1.27 | 1.58 | 1/18 (2.20)
KISQSVLYESRNKNSVA | AASTRES | QPYHRLPLS | Ctrl | 1.40 0.72 1.12 1.33 1.23 1.27 | 1.18 | 4/18 (2.25)
KSSQSVLYESRNKNSVA | SASTRES | QQYHRLPLS | Ctrl | 0.40 0.63 1.23 0.55 1.00 0.76 | 0.76 | 0/18
KSSQSVSYESRNENSVA | QASTRES | QQYHRLPLS | Ctrl | 0.41 0.41 0.27 -0.06 0.16 0.40 | 0.27 | 0/18
KWSQSVLYEHRNKNSVA | WASTRES | QQYHRLPLS | Ctrl | 1.63 1.60 3.25 n.d. n.d. n.d. | 2.16 | 0/18
KNSQSVLYESPPKNSHA | KASTRPS | QQYHRLPLS | Ctrl | n.d. n.d. n.d. n.d. n.d. n.d. | n.d. | 0/18
KLSQSVLGESRNKNSVA | NASTRES | QQYHRLPLS | Ctrl+GP_Gen | -0.07 -0.07 -0.23 -0.65 -0.42 -0.26; 0.22 0.31 0.00 0.05 0.05 0.15 | -0.08 | 1/36 (2.99)
KSSQSVLYESRNKNSVA | TADTRES | QQYHRLPLS | Ctrl | n.d. n.d. n.d. n.d. n.d. 2.12 | 2.12 | 0/18
KHSQSVLYESRNKNSVA | WASTHES | QQYHRLPLS | Ctrl | n.d. n.d. n.d. n.d. n.d. n.d. | n.d. | 0/18
KSSQSVLYESTNLNSVA | WASTRES | QQYHRLPLS | Ctrl | 1.32 0.81 0.81 0.97 1.02 1.73 | 1.11 | 1/18 (2.55)
KDSQSVLYEERNYNSVA | EASTRES | QQYHRDELS | Ctrl | n.d. n.d. n.d. n.d. 3.28 2.33 | 2.81 | 0/18
KSSQSVRYESRNKNSVA | WASKRER | QQYHRLPLS | Ctrl | n.d. n.d. n.d. n.d. n.d. n.d. | n.d. | 2/18 (1.20)
KSSQSVLQESRNKNSVA | EAMTRES | QQYHRLPLS | Ctrl | 0.67 0.33 0.38 0.32 0.45 0.42 | 0.43 | 2/18 (3.73)
KSSQSVQYESRNKNSVA | GASTRES | QQYHRLPLS | Ctrl | 0.21 0.68 0.36 0.28 0.59 0.41 | 0.42 | 2/18 (1.81)
CSSQSVLYESRNKNSVA | WASTREV | QQYHRLPLS | Ctrl | n.d. n.d. n.d. n.d. n.d. n.d. | n.d. | 0/18
KSSQSVLYESRNKNSVA | WASTREQ | QQYHGLPLS | Ctrl | n.d. n.d. 2.21 n.d. n.d. 4.31 | 3.26 | 1/18 (2.14)
KSSQSVLYETRNKNSVA | WASTRES | QQMHRLPLS | Ctrl | 1.57 n.d. n.d. n.d. n.d. n.d. | 1.57 | 0/18
KSSQSVLYESRNKNSVA | WASTRES | QQYHKLPLS | Ctrl | 1.50 0.97 1.30 1.07 1.44 1.21 | 1.25 | 3/18 (3.38)
KSSQSVPPESRNKNSVA | WASTRES | QQYHRLPLS | Ctrl | 0.80 2.20 1.55 2.00 2.43 1.49 | 1.74 | 0/18
KSSQPVLGESSNKNSVA | TCSTRES | QQYHRLPLS | Ctrl | n.d. n.d. n.d. 2.54 n.d. 2.35 | 2.45 | 1/18 (1.23)
KYSQSVLYESRNKNSVA | WASTREA | QQYFRLPLS | Ctrl | 2.05 2.09 2.08 1.09 2.07 2.31 | 1.95 | 0/18
SSSQSVLYESRNKNSVA | WATTRES | QQYHRLPLS | Ctrl | n.d. 2.00 2.71 2.88 1.57 2.03 | 2.24 | 0/18
KNSQSVPYESRNKNSVA | DASTRES | QQYHRLPLL | Ctrl | 0.29 -0.08 -0.05 -0.19 -0.28 -0.05 | -0.06 | 0/18
KSSQSVFIESSNKNSVA | WASTRES | QQYARLPGS | Ctrl | 1.12 1.55 2.62 0.71 1.00 n.d. | 1.40 | 0/18
KSSTSVLQESRIVNSVA | WESTRES | QQYHRLPLS | Ctrl | n.d. n.d. n.d. n.d. n.d. n.d. | n.d. | 0/18
KSSQSVLYEDRNKNSVA | KASTRES | QQYHRLPIS | Ctrl | 1.90 1.77 1.58 1.17 1.96 2.13 | 1.75 | 1/18 (2.59)
KSSQSVLYESSNKNSVA | WASTRES | QQYHRLPCS | Ctrl | 2.12 n.d. n.d. n.d. 2.67 n.d. | 2.40 | 1/18 (1.85)
KSSISVSYESRNKNNVA | WASTRES | QQYHRLPLS | Ctrl | 0.96 1.29 n.d. 1.04 1.11 0.42 | 0.97 | 0/18
KSSNSVLYESQNKNSVA | TASTHEM | QQYAHLPLS | Ctrl | n.d. 1.81 n.d. 2.97 n.d. 1.92 | 2.23 | 0/18
KSSNSVLYESRNKNQVA | WASTRES | QQYHRLPLS | Ctrl | n.d. n.d. n.d. n.d. n.d. n.d. | n.d. | 0/18
VSSQSGLDESRNKNSVA | WASTRES | QQYHRLPLS | Ctrl | 1.77 2.46 1.81 1.77 2.00 2.31 | 2.02 | 2/18 (2.20)
KSSQSVLYSSRNKNSVA | YASTRES | QQYHRMPLS | Ctrl | 2.94 1.85 n.d. 3.01 2.24 3.26 | 2.66 | 1/18 (2.40)
KSSQSVAYQSRNNNSVA | WASTRMS | QQYHRLPLS | Ctrl | 2.00 1.74 1.65 2.09 1.33 1.77 | 1.76 | 0/18
KSSQSVLYESRNTNSVA | WASTRES | QQYHRLPLS | Ctrl | 1.51 1.64 1.67 1.23 1.64 1.92 | 1.60 | 2/18 (2.79)
KFSQSVLYESGNKNSVA | GASTRES | QQVHRLPLS | Ctrl | n.d. n.d. 4.31 n.d. 3.09 n.d. | 3.70 | 2/18 (2.92)
KSSQSVLYESRNKNSVA | WASTREL | QQYHRLPLS | Ctrl | 1.55 n.d. 1.35 1.42 1.79 1.45 | 1.51 | 0/18
HSSQSVLYESSNDNSIA | EASTRES | QQYHRLPLS | Ctrl | 0.91 0.91 0.39 0.21 0.54 0.61 | 0.60 | 1/18 (1.46)
KSSQSVLYESRNKKSVA | YASTRES | QQYHRLPLS | Ctrl | n.d. 1.89 n.d. 1.86 1.96 1.19 | 1.72 | 1/18 (1.63)

The opening 7 entries, copied out:

CDR-L1,CDR-L2,CDR-L3,group,"replicates, log10 nM","mean, log10 nM",empty controls
KSSQSVLYESRNFNSVA,KASTRES,QQYHRLPLS,Ctrl,n.d. 1.19 2.13 1.35 n.d. n.d.,1.56,0/18
KSSQSVLYEVRNHNSVA,WASTRES,QQYHRLPLS,Ctrl,n.d. n.d. n.d. n.d. n.d. n.d.,n.d.,0/18
KSRQSVLYESRNKNSVA,WASTRES,QQYHRVPLS,Ctrl,n.d. n.d. n.d. n.d. n.d. n.d.,n.d.,0/18
KSSESVLREDRNKNSVA,WASTRES,PQYHRLPLS,Ctrl,n.d. n.d. n.d. 2.67 0.93 n.d.,1.80,1/18 (1.86)
KISQSMLYESRNHNSVA,WASTRES,QQYHGLPLS,Ctrl,1.21 1.05 2.04 2.21 1.70 1.27,1.58,1/18 (2.20)
KISQSVLYESRNKNSVA,AASTRES,QPYHRLPLS,Ctrl,1.40 0.72 1.12 1.33 1.23 1.27,1.18,4/18 (2.25)
KSSQSVLYESRNKNSVA,SASTRES,QQYHRLPLS,Ctrl,0.40 0.63 1.23 0.55 1.00 0.76,0.76,0/18

Where one sequence has several entries in the source, the replicates are listed entry by entry, parted by semicolons.
The authors' rule: three or more of the six replicates give a measured affinity, fewer mean a poor binder.
Empty control strains, which show no peptide, gave a signal in 4% of pairings with all light chain designs; the median was 2.64 and 95% of these signals were weaker than 1.59. No background was subtracted. Also given: how often the same scFv was detected with the empty control strains, with their mean in brackets.
Values of this round are not directly comparable with the first-round values of the same sequences.
Of ten entries with the parent sequence, four were seen in most replicates (averages 0.34 to 2.37), three in one and three in none, so single entries are noisy.

The measurements come from Li et al. 2023 (doi:10.1038/s41467-023-39022-2) through the FLAb antibody collection.